Measurements published in patent US20020019344A1, “Methods of preventing allograft rejection” (priority 2000, published 2002).

Test system: IL-2 secretion in human T lymphocytes
Assay: Inhibition of PHA/PMA-induced IL-2 secretion in human T lymphocytes
Assay type: cell-based
Conditions: Example 1

Q: Which “concentration at which inhibition of IL-2 production was evident” value does the source give for CN(CCOc1ccc(CC2SC(=O)NC2=O)cc1)c1ccccn1 (stereo not shown) [rosiglitazone] here?
A: 0.1 µmol/L
